The results in this text go back to patent publication US20090118135A1, “METHODS AND COMPOUNDS FOR REGULATING APOPTOSIS” (The Burnham Institute, priority 2007, published 2009).

Each structure is given as a SMILES string.

For one experiment, the target named is T1, GST-Bcl-B (Homo sapiens, UniProt Q9HD36).
T1 sequence (Q9HD36 1-182 limits assumed): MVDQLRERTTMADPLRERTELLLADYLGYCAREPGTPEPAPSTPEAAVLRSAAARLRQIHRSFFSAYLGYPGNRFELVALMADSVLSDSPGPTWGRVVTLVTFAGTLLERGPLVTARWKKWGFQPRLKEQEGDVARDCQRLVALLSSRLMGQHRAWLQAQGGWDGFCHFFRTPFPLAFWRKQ
Put plainly: Bcl-B/FITC-TR3-r8 fluorescence polarization competition (displacement) assay, HTS and dose-response. (In general: Fluorescence polarisation rises when a labelled molecule tumbles more slowly, as on binding a larger partner.)

Another experiment deals with T2, GST-Bfl-1 (Homo sapiens, UniProt Q16548).
T2 construct: lacking their C-terminal transmembrane domains (about the last 20 amino acids) (“ΔTM”); made in house; host or cells: XL-1 Blue E. coli, pGEX 4T-1
T2 sequence (Q16548 1-155 limits assumed): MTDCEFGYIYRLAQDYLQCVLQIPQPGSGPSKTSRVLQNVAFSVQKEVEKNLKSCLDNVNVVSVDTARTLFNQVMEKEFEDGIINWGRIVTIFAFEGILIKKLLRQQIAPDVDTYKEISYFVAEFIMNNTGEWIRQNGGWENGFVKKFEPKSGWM
Kind of experiment: Bfl-1/FITC-Bid BH3 competitive fluorescence polarization assay. It is filed as binding. How it is done: A FPA was performed to determine the binding affinity of FITC-Bid BH3 peptide to Bcl-2 proteins. Serial concentrations of Bcl-2 proteins were incubated with 5 nM FITC-Bid BH3 peptide (FITC-Ahx-[…]; SEQ ID NO: 55) in PBS using a 96 well black plate (Greiner bio-one). […] IC50 determinations were performed using GraphPad Prism software (GraphPad, Inc., San Diego, Calif.). FPA competition assays were performed using the same procedure described above, except that 100 nM of GST-Bfl-1 protein in a volume of 45 μl was incubated with 5 μl (50 μM) test compounds in DMSO per well for 30 min prior to addition of 50 μl (5 nM) FITC-Bid BH3 peptide. The final DMSO concentration was 5% when the reactions brought to fall volume of 100 μl. Fluorescence polarization was measured after 10 min. Compounds that reduced the fluorescence polarization by 50% were considered hits.

For `COc1ccc2c(c1)c1c(C)c3cnccc3c(C)c1n2CCCN.Cl` [Compound 176327], on GST-Bcl-B, the “Is Hit” value is recorded as “Yes”. The inhibition at 0.02 µM at GST-Bcl-B (read-out: Result Value (Result Type % Inhibition), BCL-b/TR3) was found to be 107%.

Regarding `O=C(OC1CCCCC1)c1ccc2c(c1)C1C=CCC1C(C(=O)O)N2` (stereo not shown) [Compound 4249621], at GST-Bfl-1, the “% Activity” value came out at 78.5% and the FRatio came to 0.38.
